Experiments:
mTOR = mTOR (Homo sapiens, UniProt P42345); assay: Biological Assay: mTOR enzyme activity, mTOR immunoprecipitated from HeLa cell cytoplasmic extract, recombinant PHAS-1 as substrate; format: biochemical; conditions: read-out: IC50, tested in the Biological Assay, PHAS-1 substrate
[1] = molecular target: recombinant mTOR (FLAG-tagged, amino acid residues 1362 to 2549) (Homo sapiens, UniProt P42345); assay: Alternative Enzyme Assay: AlphaScreen, inhibition of phosphorylation by recombinant mTOR; format: biochemical; conditions: single values

IC50 (mTOR): 43 nM
IC50 [1]: 15 nM
SMILES: COc1cc(-c2ccc3c(N4CCOCC4)nc(N4C[C@@H](C)O[C@@H](C)C4)nc3n2)cc(OC)c1O
